# From article PMC12024540, “Peptide-Based Regulation of TNF-α-Mediated Cytotoxicity” (Biomolecules, 2025)
# Target: T1, Human TNFR1 (soluble) recombinant protein (Homo sapiens, UniProt P19438)
# T1 construct: Human TNFR1 (soluble) recombinant protein; purchased PeproTech
# T1 sequence (P19438 41-201 limits assumed): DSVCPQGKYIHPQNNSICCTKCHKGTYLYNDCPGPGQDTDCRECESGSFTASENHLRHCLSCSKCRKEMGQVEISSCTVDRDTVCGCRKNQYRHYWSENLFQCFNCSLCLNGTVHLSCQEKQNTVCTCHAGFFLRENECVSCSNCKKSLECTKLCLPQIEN
# Assay: Microscale thermophoresis (MST) binding to labeled TNFR1
# Protocol: MST was performed using a Monolith NT.115 Pico instrument (NanoTemper Technologies, Munich, Germany). In this technique, thermophoresis applied by irradiation with an infrared (IR) laser diode disrupts a ligand-target binding interaction that has equilibrated. The concentration of fluorescent molecules can be altered by the direct movement of molecules within a temperature gradient. The effect on the fluorescence signal is monitored continuously over time. […] Mixtures of labeled molecules and functional peptides or TNFR1 were prepared in PBS. Labeled molecules were maintained at 20 nM for the peptide binding experiments, and the ligand concentrations varied according to the molecule with 16 serial dilutions. The peptide-labeled molecule mixture was loaded into the glass capillaries after 20 min incubation in the dark. Results were analyzed using M.O. Affinity Analysis v.2.3 software.
substance,measurement,value
TNF-α,Kd,4.94 nM
